Results taken from US20070098776A1 (published 2007).
Where two headings read alike, the source gives them in different places.

Experiments:
[1] = target: T1, HLA-A*0202 (human); test: competitive inhibition assay, purified HLA
T1 construct: purified HLA class I molecule

[2] = target: T1, HLA-A*0202; test: competitive inhibition assay, purified HLA; remark: listed apart in the source

YMIMVKCWMI (native HER2/neu peptide) [Her2/neu.952]
IC50 [1]: 307 nM
IC50 [2]: 307 nM
